Reference: patent publication US7709465B2, “Phosphorous containing compounds including triphenylmethylphosphonate esters for the treatment of melanoma and other cancers” (The Board of Trustees of the University of Illinois, priority 2006, dated 2010)
Where two headings read alike, the source gives them in different places.

Tests used:
UACC-62 cells [1] = test: cells; details: Homo sapiens
UACC-62 cells [2] = details: read-out: IC50 (μM) at 72 hours
[3] = UACC-62, 72 h, read-out: IC50 (μM) at 72 hours
[4] = UACC-62, 72 h, read-out: IC50 (μM) at 72 hours, UACC-62 cells, 72 hours

SMILES	IC50 (UACC-62 cells [1]; [4]) [µM]	further results
COP(=O)(OC)C(c1ccccc1)(c1ccccc1)c1ccccc1 [CX1]		IC50 (UACC-62 cells [1]; [3]): 0.33 µM
O=C(O)CCCn1cc(COP(=O)(OCc2cn(CCCC(=O)O)nn2)C(c2ccccc2)(c2ccccc2)c2ccccc2)nn1 [CX2]	0.29	
O=P(OCC(O)CO)(OCC(O)CO)C(c1ccccc1)(c1ccccc1)c1ccccc1 (stereo not shown) [CX4]	0.64	
CCOP(=O)(OCC)C(c1ccccc1)(c1ccccc1)c1ccccc1 [CX5]		IC50 (UACC-62 cells [1]; [3]): 0.67 µM; IC50 (UACC-62 cells [1]; UACC-62, read-out: diethyl TPMP IC50 (μM)): 0.67 µM
CC(O)(CO)CCOP(=O)(OCCC(C)(O)CO)C(c1ccccc1)(c1ccccc1)c1ccccc1 (stereo not shown) [CX6]	0.72	
CCCCOP(=O)(OCCC)C(c1ccccc1)(c1ccccc1)c1ccccc1 (stereo not shown) [CX7]	2.3	
C#CCOP(=O)(OCC#C)C(c1ccccc1)(c1ccccc1)c1ccccc1 [CX8]	2.5	
O=C(O)C1OP(=O)(C(c2ccccc2)(c2ccccc2)c2ccccc2)OC1C(=O)O (stereo not shown) [CX9]	2.33	
CC(C)OC(=O)C1OP(=O)(C(c2ccccc2)(c2ccccc2)c2ccccc2)OC1C(=O)OC(C)C (stereo not shown) [CX10]	4.21	
CC#CCOP(=O)(OCC#CC)C(c1ccccc1)(c1ccccc1)c1ccccc1 [CX11]	4.5	
CCCCOP(=O)(OCCCC)C(c1ccccc1)(c1ccccc1)c1ccccc1 [CX12]	4.6	
O=P1(C(c2ccccc2)(c2ccccc2)c2ccccc2)OCCO1 [CX13]	7.19	IC50 (UACC-62 cells [2]): 13.8 µM
C=C(C)CCOP(=O)(OCCC(=C)C)C(c1ccccc1)(c1ccccc1)c1ccccc1 [CX15]	16.5	
CCOP(=O)(OCC)C(c1ccccc1)c1ccccc1 [CX17]		IC50 (UACC-62 cells [1]; [3]): 51 µM
